Measurements: ChEMBL document CHEMBL1139550, “1-Acyl-1H-[1,2,4]triazole-3,5-diamine analogues as novel and potent anticancer cyclin-dependent kinase inhibitors: synthesis and evaluation of biological activities” (J Med Chem, 2005)

Sequences of proteins named here, by UniProt entry; tags and fusion partners are left off. Residues count along the entry.
UniProt P06213, 28-758 limits assumed: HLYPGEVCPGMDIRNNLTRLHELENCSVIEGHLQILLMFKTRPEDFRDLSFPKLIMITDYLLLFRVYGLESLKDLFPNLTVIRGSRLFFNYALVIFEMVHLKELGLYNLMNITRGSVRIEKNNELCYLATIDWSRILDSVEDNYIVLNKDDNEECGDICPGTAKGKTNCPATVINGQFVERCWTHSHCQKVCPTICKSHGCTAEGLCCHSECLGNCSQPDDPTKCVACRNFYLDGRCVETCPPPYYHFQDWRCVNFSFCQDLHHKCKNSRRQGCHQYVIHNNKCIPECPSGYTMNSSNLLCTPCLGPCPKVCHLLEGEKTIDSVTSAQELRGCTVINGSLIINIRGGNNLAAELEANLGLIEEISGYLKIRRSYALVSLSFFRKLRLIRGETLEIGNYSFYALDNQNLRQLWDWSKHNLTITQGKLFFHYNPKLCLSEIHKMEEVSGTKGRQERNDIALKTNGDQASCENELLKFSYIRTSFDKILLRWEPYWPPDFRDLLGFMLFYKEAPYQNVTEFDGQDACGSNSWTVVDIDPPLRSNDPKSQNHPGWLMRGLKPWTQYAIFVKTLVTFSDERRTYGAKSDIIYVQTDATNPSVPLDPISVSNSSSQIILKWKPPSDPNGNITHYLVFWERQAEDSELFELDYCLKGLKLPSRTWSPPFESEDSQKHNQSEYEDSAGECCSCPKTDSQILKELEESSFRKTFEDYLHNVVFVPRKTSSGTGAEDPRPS
UniProt P06213, 763-1382 limits assumed: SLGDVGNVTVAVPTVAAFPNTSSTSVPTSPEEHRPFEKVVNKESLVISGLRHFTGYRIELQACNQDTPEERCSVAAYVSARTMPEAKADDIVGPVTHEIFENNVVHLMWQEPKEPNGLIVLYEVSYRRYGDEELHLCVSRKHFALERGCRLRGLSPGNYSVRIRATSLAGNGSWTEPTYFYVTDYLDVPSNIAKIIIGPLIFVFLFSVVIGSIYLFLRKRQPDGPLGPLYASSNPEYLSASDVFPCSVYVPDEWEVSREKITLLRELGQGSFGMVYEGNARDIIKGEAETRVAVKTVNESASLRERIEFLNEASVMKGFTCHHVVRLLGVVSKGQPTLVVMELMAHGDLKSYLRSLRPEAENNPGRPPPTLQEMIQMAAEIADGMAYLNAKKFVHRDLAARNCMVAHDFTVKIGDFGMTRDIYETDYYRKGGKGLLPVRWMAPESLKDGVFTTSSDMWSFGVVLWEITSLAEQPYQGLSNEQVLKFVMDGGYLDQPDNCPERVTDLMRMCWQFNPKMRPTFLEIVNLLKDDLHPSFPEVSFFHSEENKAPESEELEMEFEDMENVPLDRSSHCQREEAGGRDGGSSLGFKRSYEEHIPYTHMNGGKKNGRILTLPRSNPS

Biological target: Insulin receptor (Homo sapiens, UniProt P06213)
Assay: Inhibition of Insulin kinase-beta activity

IC50: 9.8 µM
Compound: Cc1ccc(F)c(C(=O)n2nc(Nc3ccc(S(N)(=O)=O)cc3)nc2C)c1F
